scFv variants of Ab-14 (light chain) against a SARS-CoV-2 spike peptide

Data: MIT Lincoln Laboratory AlphaSeq set, Engelhart et al. 2022, doi:10.1038/s41597-022-01779-4, as distributed in FLAb.

Binding partner: SARS-CoV-2 spike HR2 peptide, sequence PDVDLGDISGINAS.

Each scFv is VH, a (GGGGS)3 linker, VL, as in the parent Ab-14, and differs from it in the CDRs of the light chain only.
VH: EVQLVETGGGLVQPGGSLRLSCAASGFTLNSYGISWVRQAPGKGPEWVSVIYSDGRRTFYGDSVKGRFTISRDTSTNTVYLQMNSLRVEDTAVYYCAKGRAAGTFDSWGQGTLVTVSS
VL: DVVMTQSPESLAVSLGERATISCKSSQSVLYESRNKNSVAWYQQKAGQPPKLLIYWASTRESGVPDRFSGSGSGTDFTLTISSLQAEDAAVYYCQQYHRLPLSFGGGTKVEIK

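The starting antibody came from a phage panning campaign against this peptide. Variants in AAYL50 differ from the parent at up to three CDR positions; double and triple changes were sampled at random. In AlphaSeq, yeast of one mating type display the scFv and yeast of the other type display the target. Binding brings cells together so that they mate, and sequencing counts the barcode pairs among the diploids. Each replicate has its own calibration line, from reference interactions of the BCL2 family. Each pool was mated in three replicate cultures.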

The parent's light chain CDRs are KSSQSVLYESRNKNSVA, WASTRES, QQYHRLPLS; each variant's own CDRs replace them letter for letter. Affinities are written as log10 Kd with Kd in nM; a lower number is a better binder. "ND" marks a missing value. The strain was present, yet no cells mated with the target were sequenced in that replicate, which points to weak or no binding. In this assay the parent's reference entry averaged 0.65; its copy inside this library read 1.68. Empty control strains, which show no peptide, gave a signal in 18% of pairings with library AAYL50; the median was 4.19 and 95% of these signals were weaker than 2.99. No background was subtracted. Also given: how often the same scFv was detected with the empty control strains.

KSSQSVNYESRNKNSVA | WASTRES | QQYHDLPQS: ND, ND, ND (controls 1 of 9).
KSSQSVYYESRNKNSVA | WASTRES | QQYHSLCLS: 1.44, 1.49, 1.58 (controls 1 of 9).
KSSQSVLYESRNKNSVA | WASTRED | QQYHRLPLS: 1.19, 1.33, 1.23 (controls 6 of 9).
KSSQSVLYETRNKLSVA | WASTRES | QQYHWLPLS: ND, ND, 5.65 (controls 1 of 9).
KSSQSSLYESRNKNSVC | WASTRES | QQYQRLPLS: ND, ND, ND (controls 0 of 9).
KSSQSVLFESRNKSQVA | WASTRES | QQYHRLPLS: 2.36, 2.09, 2.15 (controls 3 of 9).
KSSQSVLYESRWKNSVE | WASTRES | QQYHRLPLS: ND, ND, ND (controls 0 of 9).
KSSQSVLYVSRNKNSVA | WASTRES | QQYWRLYLS: 5.00, ND, 6.09 (controls 3 of 9).
KSSQSVLYESRNKNNVA | WASTRES | QMYRRLPLS: 1.56, 1.66, 2.23 (controls 0 of 9).
KSSQSVLYESRNKNSVA | WAILRES | IQYHRLPLS: ND, ND, ND (controls 0 of 9).
KSSQSVLYENRNKNSVM | WASTRES | QQYHRLPLA: ND, ND, ND (controls 1 of 9).
KSSQSVLYESRNKSSVA | WASTSFS | QQYHRLPLS: ND, 4.15, ND (controls 1 of 9).
KSSQSVLYESRNKNSVA | WASHRES | QQYHRRPLS: ND, ND, ND (controls 2 of 9).
KSSQSVLYESRNKNSVA | WASTRES | QQYHRLPLA: 0.72, 0.70, 0.67 (controls 0 of 9).
NSSQSVLYSSRNKNSVA | WESTRES | QQYHRLPLS: ND, 3.26, ND (controls 1 of 9).
KSSQSVLYYSRNKNSVA | WASTRES | QQYVRLFLS: ND, ND, ND (controls 1 of 9).
KSSQSVHYESRNKNFVA | WASTRES | QQYDRLPLS: 5.06, 2.74, 2.87 (controls 2 of 9).
KFSQSVWYESRNKNSVA | WASTQES | QQYHRLPLS: 2.21, 2.01, 2.33 (controls 1 of 9).
YSSQSVLYESRNKMSVA | WASTRES | QQYHRLYLS: ND, 3.40, ND (controls 0 of 9).
KSSQSVFYESRNHNSVA | WASQRES | QQYHRLPLS: 0.79, 0.85, 0.98 (controls 3 of 9).
KSSQSVLYESYNKNSVA | WQSTRES | QQYHRLPLW: 2.24, 2.25, 1.88 (controls 0 of 9).
KSSQSVLYESRNKNEVF | WASTRET | QQYHRLPLS: ND, 3.15, 4.11 (controls 2 of 9).
KSSHSVLYESRNKISVA | WASTRES | WQYHRLPLS: ND, 4.39, ND (controls 3 of 9).
KSSQSVLYESRNKNSVA | WAKSRES | QIYHRLPLS: ND, ND, ND (controls 2 of 9).
KSSQSVLYLSRNKLSVA | WFSTRES | QQYHRLPLS: ND, ND, ND (controls 1 of 9).
KSSQSVLYESRNKISVA | WAMTRKS | QQYHRLPLS: ND, ND, ND (controls 0 of 9).
KSSISVLYEVRNKNSVA | WASTRES | QQHHRLPLS: ND, 2.99, ND (controls 0 of 9).
KSSQSVLYERRNKNSVA | WASTRCS | QQYHRLMLS: 4.17, ND, ND (controls 0 of 9).
KSSLSVLYESRNKNKVA | WASTRES | TQYHRLPLS: ND, ND, ND (controls 1 of 9).
KSSQSKLYESRYKNSVA | WASTRES | QQYHRLTLS: 0.88, 1.15, 1.01 (controls 0 of 9).

Repeated from above, the 4 best binders with a signal in all replicates:

{"CDR-L1": "KSSQSVLYESRNKNSVA", "CDR-L2": "WASTRES", "CDR-L3": "QQYHRLPLA", "log10 Kd, replicates": "0.72, 0.70, 0.67", "empty controls": "0/9"}
{"CDR-L1": "KSSQSVFYESRNHNSVA", "CDR-L2": "WASQRES", "CDR-L3": "QQYHRLPLS", "log10 Kd, replicates": "0.79, 0.85, 0.98", "empty controls": "3/9"}
{"CDR-L1": "KSSQSKLYESRYKNSVA", "CDR-L2": "WASTRES", "CDR-L3": "QQYHRLTLS", "log10 Kd, replicates": "0.88, 1.15, 1.01", "empty controls": "0/9"}
{"CDR-L1": "KSSQSVLYESRNKNSVA", "CDR-L2": "WASTRED", "CDR-L3": "QQYHRLPLS", "log10 Kd, replicates": "1.19, 1.33, 1.23", "empty controls": "6/9"}